This assay deals with K562. The assay can be described thus: Inhibitory concentration against human chronic myeloid leukemia cell line K562.

Each structure is given as a SMILES string.

The IC50 is the concentration that inhibits the measured activity by half. `ClCCN1CCN(CCCl)CCN(CCCl)CCN(CCCl)CC1` yielded an IC50 of 22 µM.

The record behind these values is ChEMBL document CHEMBL1138809, “A novel design strategy for stable metal complexes of nitrogen mustards as bioreductive prodrugs” (2004).
